Structures are written as SMILES.

A short description of the data set: Control experiment: stirring hydrophobic compound with pure water. To be noted: 18 g in water (about 876 g).

Take `C=C(C)[C@H]1CC=C(C)CC1` [d-limonene]: the “undissolved compound recovered after settling” value turned out to be 17.5 g.

Source of the values: US7652067B2, “Aqueous compositions containing monoester salts” (Millenium Specialty Chemicals, Inc., priority 2006, dated 2010).
